From patent US20190274981A1, “OLEANOLIC ACID ENHANCES MESENCHYMAL STROMAL CELL OSTEOGENIC POTENTIAL BY INHIBITION OF NOTCH SIGNALING” (Board of Supervisors of Louisiana State University and …, priority 2018, published 2019)

How the values were obtained:
phospho-smad1/5/8 = assay: RT-PCR and western blot of phospho-smad1/5/8; assay type: cell-based, human; settings: MSCs, day 7, OA 20 μM, BMP2 200 ng/ml
Method: Real time RT-PCR: cDNA was synthesized from 1 μg total RNA using the SuperScript III reverse transcriptase kit (Invitrogen) in a final volume of 20 μl. Primers were designed with the IDT SCI primer design tool (Integrated DNA Technologies, San Diego, Calif.). RT-PCR experiments were performed with a Bio-Rad C1000 thermal cycler (Bio-Rad, Hercules, Calif.), and real-time PCR experiments were performed with an ABI prism 7500 (Applied Biosystems, Grand Island, N.Y.) in triplicate. Sequence for each primer pair were: Hes1, forward primer 5′-[…]-3′, reverse primer 5′-[…]-3′; ALP, forward primer 5′-[…]-3′, reverse primer 5′-AGTCAGGTTGTT CCGATTCA-3′; Runx2, forward primer 5′-[…]-3′, reverse primer 5′-[…]-3′; Osteocalcin (OC), forward primer 5′-[…]-3′, reverse primer 5′-[…]-3′; Osteopontin (OPN), forward primer 5′-[…]-3′, reverse primer 5′-[…]-3′; Type I collagen (Col1a1), forward primer 5′-[…]-3′, reverse primer 5′-[…]-3′; β-actin, forward primer 5′-[…]-3′; reverse primer 5′-TCCACCACCC TGTTGCTGTA-3′. Samples were analyzed in triplicate, and the raw data consisted of PCR cycle numbers required to reach a fluorescence threshold level. The relative expression level of target genes was normalized to (β-actin gene. […]

MSC/HA pellet = assay: In vivo ectopic bone-formation assay; settings: nude mice, six weeks, BMP2 with or without OA
Method: In vivo ectopic bone-formation assay: All animal studies were reviewed and approved by the Animal Ethics Committee of Louisiana State University Health Sciences Center. 1.0×10^6 total MSCs were re-suspended in 80 μl of MSC growth media containing 20 μM OA and gently mixed with 50 mg of hydroxyapatite (HA) powder (Himed). The composites were then centrifuged for two minutes at 200 rpm to form a MSC/HA pellet. For ectopic bone formation surgery, ten 8-week-old NOD.CB17^−Prkdescid/J mice (Charles River) (up to 2 implants for each animal) were anesthetized and the dorsal skin was cleaned with 70% ethanol. Two incisions of ˜1 cm in length were performed on the opposite flanks of the back, and then a pocket was formed by blunt dissection. Finally the MSC/HA pellets were implanted. Six weeks post-surgery, transplanted BMSC/HA pellets were harvested for gross observation and Masson's trichrome staining. Immunohistochemistry (IHC) staining was performed using anti-osteopontin antibody (7C5H12, Abcam, USA) according to our published protocols. All animal work was performed in accordance with institution approved guidelines.
OA enhances BMP2-mediated ectopic bone formation: To further confirm the capacity of OA induced osteogenesis in vivo, ectopic ossicle assays using 8-week old nude mice was performed. […]

MSCs = assay: MSC osteogenic differentiation assay, ALP staining; assay type: cell-based, human; settings: OA 20 μM and/or BMP2 200 ng/ml, seven days, osteogenic medium
Method: Cell culture and treatment: The human MSCs were purchased from Lonza. Oleanolic acid was obtained from Sigma-Aldrich (Aldrich-5504). A 100 mM solution of OA was prepared in dimethyl sulfoxide (DMSO), and all test concentrations were prepared by diluting the stock solution in cell culture medium. Recombinant human BMP2 was purchased from R&D. The cells were cultured in DMEM supplemented with 10% fetal bovine serum (Gibco BRL, Rockville, Md.). After expansion, cells were exposed to media containing OA and/or BMP2 for certain days. […] At the end, cells were harvested at different time points for analyses as described below.
MSC osteogenic differentiation assay: Osteogenic differentiation assays of MSCs were performed using the Osteogenic differentiation bulletKit® (Lonza). MSCs were cultured at 200,000 cells/well in 6-well plates to confluence. Stem cell growth media was then replaced with osteogenic media supplied with or without OA and BMP2. After seven days of culture, alkaline phosphatase (ALP) staining, RNA, and protein isolation were performed as described in our published protocols.

B1: BMP2: Recombinant human BMP2 purchased from R&D; growth factor bone morphogenetic protein 2 (protein, UniProt P12643 283-396, looked up)
Bone morphogenetic protein 2: QAKHKQRKRLKSSCKRHPLYVDFSDVGWNDWIVAPPGYHAFYCHGECPFPLADHLNSTNHAIVQTLVNSVNSKIPKACCVPTELSAISMLYLDENEKVVLKNYQDMVVEGCGCR
phospho-smad1/5/8
  gene expression of p-smad1/5/8 (RT-PCR): significantly increased
MSC/HA pellet
  bone matrix in MSC/HA pellet (Masson's trichrome): increase of bone matrix
MSCs
  ALP activity (ALP staining): significant increase
